Values of other authors, collected in article PMC6358775, “Elucidation of Vasodilation Response and Structure Activity Relationships of N^2,N^4-Disubstituted Quinazoline 2,4-Diamines in a Rat Pulmonary Artery Model” (Molecules, 2019).

Tested on: α1 adrenergic receptor
Settings: α1 adrenergic receptor antagonist; ChEMBL substructure search; cited from earlier work

COc1cc2nc(N3CCN(C(=O)C4CCCO4)CC3)nc(N)c2cc1OC (stereo not shown) [Terazosin]
Activity: 7 nM
